Patent US8759366B2, “Aminopyrimidines as SYK inhibitors” (Merck Sharp & Dohme Corp., priority 2009, dated 2014)

Tests used:
[1] = molecular target: rhSYK (Homo sapiens (Human), UniProt P43405)
[2] = molecular target: recombinant human SYK (GST-hSYK fusion protein) (Homo sapiens (Human), UniProt P43405)

IC50 [2] [nM] | SMILES | other results
– | CC(=O)NS(=O)(=O)c1ccc(C(C)(O)c2ncc(-c3cc(C)cc(Nc4nccc(C(F)(F)F)n4)c3)s2)cc1 (stereo not shown) | IC50 ([1]; tested form: TFA): < 100 nM
– | COc1nc(Nc2cc(C)cc(-c3cnc([C@@]4(O)CC[C@H](C(=O)O)[C@H](C)C4)s3)c2)ncc1F | IC50 ([2]; tested form: formate): < 100 nM
< 100 | Cc1cc(Nc2nccc(OC(C)C)n2)cc(-c2cnc([C@]3(O)CC[C@@H](C(N)=O)CC3)s2)c1 (relative stereo) | –
< 100 | CCOC(=O)CNC(=O)N1CCCC(O)(c2ncc(-c3cc(C)cc(Nc4nccc(C(F)(F)F)n4)c3)s2)CC1 (stereo not shown) | –
1000 to 10000 | COc1nc(Nc2cc(C)cc(-c3cnc(C4(O)CCCN(C(=O)OC(C)(C)C)CC4)s3)c2)ncc1Cl (single isomer, unassigned) | –
– | CCOC(=O)CCCNC(=O)N1CCCC(O)(c2ncc(-c3cc(C)cc(Nc4nccc(C(F)(F)F)n4)c3)s2)CC1 (stereo not shown) | IC50 ([2]; tested form: TFA): < 100 nM
– | Cc1cc(Nc2nccc(C(F)(F)F)n2)cc(-c2cnc(C(O)(Cc3ccc(C(=O)O)cc3)c3ccccc3)s2)c1 (stereo not shown) | IC50 [1]: < 100 nM
< 100 | Cc1cc(Nc2nccc(C(F)(F)F)n2)cc(-c2cnc(C(C)(C)S(=O)(=O)NCC(N)=O)s2)c1 | –
– | C=CCNC(=O)N1CCCC(O)(c2ncc(-c3cc(C)cc(Nc4nccc(C(F)(F)F)n4)c3)s2)CC1 (stereo not shown) | IC50 ([2]; tested form: TFA): < 100 nM
< 100 | CCCNC(=O)N1CCCC(O)(c2ncc(-c3cc(C)cc(Nc4nccc(C(F)(F)F)n4)c3)s2)CC1 (stereo not shown) | –
– | COc1nc(Nc2cc(C)cc(-c3cnc([C@]4(O)CC[C@@H](C(=O)O)[C@@H](C)C4)s3)c2)ncc1F | IC50 ([2]; tested form: formate): < 100 nM

SMILES | IC50 [2] [nM] | other results
Cc1cc(Nc2nccc(C(F)(F)F)n2)cc(-c2cnc(C3(O)CCCN(C(=O)NC(C)C)CC3)s2)c1 (stereo not shown) | < 100 | –
CNC(=O)N1CCCC(O)(c2ncc(-c3cc(C)cc(Nc4nccc(C(F)(F)F)n4)c3)s2)CC1 (single isomer, unassigned) | < 100 | –

Read-outs that look alike come from different tables or passages of the source.
